According to patent US5242945A, “Tetronic and thiotetronic acid derivatives as phospholipase A2 inhibitors” (American Home Products Corporation, priority 1991, dated 1993):

Assays:
5-lipoxygenase (LTC4) = experiment: resident murine peritoneal macrophage assay, LTC4; type: cell-based, mouse (Swiss Webster); conditions: Mus musculus, read-out: IC50 LTC4
cyclooxygenase (PGE2) = experiment: resident murine peritoneal macrophage assay, PGE2; conditions: Mus musculus, read-out: IC50 PGE2

`NC1=NN(c2cccc(C(F)(F)F)c2)CC1` [BW 755c, reference compound] gave an IC50 (5-lipoxygenase (LTC4)) of 210 nM and an IC50 (cyclooxygenase (PGE2)) of 1040 nM.
